The chains behind the UniProt entries cited, without tags or fusion partners. Residues count along the entry.
UniProt O75116, whole entry: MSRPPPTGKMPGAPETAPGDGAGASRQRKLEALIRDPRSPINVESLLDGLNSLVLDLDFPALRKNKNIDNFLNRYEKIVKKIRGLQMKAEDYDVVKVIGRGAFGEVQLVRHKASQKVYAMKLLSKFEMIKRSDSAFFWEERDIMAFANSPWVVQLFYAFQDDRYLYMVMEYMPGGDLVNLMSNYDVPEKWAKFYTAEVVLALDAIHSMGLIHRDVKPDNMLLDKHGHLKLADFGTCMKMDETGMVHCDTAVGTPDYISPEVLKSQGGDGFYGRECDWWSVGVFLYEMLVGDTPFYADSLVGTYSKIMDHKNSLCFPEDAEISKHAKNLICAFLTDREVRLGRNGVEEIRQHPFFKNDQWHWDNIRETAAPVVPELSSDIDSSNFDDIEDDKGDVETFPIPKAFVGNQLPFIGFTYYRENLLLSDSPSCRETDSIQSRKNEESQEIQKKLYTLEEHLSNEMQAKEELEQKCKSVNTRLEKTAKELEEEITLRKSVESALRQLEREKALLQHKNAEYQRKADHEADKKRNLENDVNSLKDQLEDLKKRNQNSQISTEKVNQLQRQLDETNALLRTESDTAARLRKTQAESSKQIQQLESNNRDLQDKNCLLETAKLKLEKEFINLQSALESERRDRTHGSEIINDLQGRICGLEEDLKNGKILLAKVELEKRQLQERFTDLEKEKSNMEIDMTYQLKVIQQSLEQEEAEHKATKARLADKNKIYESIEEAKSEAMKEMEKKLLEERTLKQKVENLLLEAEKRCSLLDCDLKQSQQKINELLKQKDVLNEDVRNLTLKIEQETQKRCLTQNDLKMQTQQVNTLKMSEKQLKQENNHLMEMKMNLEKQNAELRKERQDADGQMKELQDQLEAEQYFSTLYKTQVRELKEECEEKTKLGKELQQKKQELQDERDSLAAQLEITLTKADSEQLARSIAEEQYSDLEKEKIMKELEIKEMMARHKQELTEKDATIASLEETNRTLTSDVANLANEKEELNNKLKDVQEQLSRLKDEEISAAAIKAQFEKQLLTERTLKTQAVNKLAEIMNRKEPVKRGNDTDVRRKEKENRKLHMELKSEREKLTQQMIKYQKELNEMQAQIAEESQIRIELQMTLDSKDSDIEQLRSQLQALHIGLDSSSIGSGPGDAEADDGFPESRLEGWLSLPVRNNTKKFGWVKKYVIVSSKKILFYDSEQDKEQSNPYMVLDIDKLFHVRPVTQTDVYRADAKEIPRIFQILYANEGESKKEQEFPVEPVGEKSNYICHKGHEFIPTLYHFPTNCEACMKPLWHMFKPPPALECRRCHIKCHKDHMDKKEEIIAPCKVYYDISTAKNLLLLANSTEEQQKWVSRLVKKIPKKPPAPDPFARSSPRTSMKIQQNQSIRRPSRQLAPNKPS
UniProt Q5VT25, whole entry: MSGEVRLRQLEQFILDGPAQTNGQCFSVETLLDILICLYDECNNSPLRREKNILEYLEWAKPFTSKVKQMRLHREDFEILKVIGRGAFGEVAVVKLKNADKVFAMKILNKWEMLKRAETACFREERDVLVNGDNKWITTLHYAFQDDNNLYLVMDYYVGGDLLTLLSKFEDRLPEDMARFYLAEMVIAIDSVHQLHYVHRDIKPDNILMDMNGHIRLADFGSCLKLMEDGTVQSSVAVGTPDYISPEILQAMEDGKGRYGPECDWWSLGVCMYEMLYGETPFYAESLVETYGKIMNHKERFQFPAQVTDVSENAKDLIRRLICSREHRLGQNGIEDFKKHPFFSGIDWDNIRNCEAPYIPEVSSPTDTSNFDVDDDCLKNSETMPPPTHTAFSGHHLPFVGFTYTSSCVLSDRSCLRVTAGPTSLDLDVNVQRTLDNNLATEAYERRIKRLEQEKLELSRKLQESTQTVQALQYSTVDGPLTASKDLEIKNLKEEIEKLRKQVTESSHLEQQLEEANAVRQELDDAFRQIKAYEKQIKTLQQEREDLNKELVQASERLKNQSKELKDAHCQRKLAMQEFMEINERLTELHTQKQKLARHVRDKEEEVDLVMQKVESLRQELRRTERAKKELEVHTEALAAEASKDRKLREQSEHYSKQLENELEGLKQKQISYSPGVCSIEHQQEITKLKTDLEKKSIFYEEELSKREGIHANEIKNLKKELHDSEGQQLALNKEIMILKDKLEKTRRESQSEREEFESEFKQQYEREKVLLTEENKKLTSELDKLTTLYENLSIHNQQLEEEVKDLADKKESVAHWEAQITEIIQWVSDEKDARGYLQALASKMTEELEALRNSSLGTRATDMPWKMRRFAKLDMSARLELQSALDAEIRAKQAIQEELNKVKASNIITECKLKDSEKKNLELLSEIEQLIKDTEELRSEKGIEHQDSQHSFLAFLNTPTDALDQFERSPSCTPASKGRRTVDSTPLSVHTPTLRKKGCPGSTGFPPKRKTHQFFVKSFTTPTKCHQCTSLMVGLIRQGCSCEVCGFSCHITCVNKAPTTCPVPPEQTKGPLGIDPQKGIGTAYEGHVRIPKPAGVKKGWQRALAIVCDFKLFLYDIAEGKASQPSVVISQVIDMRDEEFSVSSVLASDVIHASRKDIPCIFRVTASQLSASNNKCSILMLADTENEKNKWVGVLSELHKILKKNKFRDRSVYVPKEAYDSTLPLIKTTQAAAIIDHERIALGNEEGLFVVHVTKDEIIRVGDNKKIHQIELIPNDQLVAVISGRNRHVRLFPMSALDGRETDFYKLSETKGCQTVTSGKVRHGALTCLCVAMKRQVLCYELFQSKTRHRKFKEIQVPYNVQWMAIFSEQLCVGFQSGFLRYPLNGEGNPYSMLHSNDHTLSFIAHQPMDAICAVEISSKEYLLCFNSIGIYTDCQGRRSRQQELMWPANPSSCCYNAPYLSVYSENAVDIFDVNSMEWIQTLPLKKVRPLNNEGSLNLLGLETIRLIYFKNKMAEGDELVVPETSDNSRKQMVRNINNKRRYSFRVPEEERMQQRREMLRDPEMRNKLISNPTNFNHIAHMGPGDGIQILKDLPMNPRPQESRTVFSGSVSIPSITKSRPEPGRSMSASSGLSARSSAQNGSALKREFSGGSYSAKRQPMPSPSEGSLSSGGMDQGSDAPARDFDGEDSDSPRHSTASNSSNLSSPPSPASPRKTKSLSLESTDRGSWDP
UniProt Q04759, whole entry: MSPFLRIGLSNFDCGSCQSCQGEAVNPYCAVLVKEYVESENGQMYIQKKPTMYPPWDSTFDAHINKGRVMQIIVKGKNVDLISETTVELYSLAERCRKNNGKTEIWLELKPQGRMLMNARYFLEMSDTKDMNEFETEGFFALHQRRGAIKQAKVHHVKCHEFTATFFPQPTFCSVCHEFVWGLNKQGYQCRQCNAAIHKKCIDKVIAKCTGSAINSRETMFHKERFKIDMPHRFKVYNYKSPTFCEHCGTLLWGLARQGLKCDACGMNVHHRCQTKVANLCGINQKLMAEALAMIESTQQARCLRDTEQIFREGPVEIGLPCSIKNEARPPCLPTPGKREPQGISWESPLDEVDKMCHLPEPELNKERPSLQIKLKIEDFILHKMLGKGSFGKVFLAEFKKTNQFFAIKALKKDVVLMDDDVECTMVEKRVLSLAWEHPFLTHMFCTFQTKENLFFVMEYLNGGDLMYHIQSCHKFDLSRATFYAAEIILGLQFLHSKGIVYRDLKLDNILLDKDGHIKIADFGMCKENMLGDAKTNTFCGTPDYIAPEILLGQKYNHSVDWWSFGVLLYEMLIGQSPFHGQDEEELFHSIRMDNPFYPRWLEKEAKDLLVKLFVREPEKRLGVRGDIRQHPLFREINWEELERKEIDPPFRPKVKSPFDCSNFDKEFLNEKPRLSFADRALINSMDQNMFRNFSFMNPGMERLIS
UniProt Q13464, 2-1354 limits assumed: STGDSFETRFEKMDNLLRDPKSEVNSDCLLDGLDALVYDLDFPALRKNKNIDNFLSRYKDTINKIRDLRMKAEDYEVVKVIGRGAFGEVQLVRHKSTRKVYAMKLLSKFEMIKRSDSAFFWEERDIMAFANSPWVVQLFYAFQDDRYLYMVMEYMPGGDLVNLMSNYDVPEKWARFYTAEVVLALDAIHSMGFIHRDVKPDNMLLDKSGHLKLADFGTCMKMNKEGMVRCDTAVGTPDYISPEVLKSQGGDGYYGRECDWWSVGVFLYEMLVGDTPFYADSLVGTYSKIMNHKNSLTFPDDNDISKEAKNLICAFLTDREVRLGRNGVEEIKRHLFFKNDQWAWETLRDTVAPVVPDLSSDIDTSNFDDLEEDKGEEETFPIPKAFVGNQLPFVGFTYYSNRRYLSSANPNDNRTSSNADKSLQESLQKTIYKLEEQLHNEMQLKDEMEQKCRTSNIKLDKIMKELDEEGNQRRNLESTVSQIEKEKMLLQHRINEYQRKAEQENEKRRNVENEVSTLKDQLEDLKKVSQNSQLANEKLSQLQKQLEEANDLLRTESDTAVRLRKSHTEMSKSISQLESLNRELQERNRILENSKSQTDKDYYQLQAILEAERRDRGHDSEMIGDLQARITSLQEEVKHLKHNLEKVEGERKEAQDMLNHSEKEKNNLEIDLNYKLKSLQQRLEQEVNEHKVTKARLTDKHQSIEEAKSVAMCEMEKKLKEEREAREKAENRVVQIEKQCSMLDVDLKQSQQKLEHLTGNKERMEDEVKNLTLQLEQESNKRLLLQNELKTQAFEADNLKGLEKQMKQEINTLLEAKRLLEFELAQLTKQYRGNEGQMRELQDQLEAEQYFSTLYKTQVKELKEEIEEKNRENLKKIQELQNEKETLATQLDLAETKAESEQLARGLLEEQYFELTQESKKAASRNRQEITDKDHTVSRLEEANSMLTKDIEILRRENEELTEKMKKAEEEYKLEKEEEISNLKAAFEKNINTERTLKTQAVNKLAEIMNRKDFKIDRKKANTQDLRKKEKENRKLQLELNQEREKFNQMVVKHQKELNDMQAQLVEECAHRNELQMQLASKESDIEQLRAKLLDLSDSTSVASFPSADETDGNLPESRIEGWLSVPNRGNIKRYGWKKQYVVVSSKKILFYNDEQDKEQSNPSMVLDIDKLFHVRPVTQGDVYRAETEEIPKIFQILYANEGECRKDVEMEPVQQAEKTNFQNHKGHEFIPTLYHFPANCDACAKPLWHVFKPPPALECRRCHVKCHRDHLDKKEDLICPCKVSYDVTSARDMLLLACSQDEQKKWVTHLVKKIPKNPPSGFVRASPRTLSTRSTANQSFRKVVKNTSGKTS

In patent publication US12479866B2, “Boron-containing rho kinase inhibitors” (Percipiad, Inc., priority 2019, dated 2025):

Tests used:
[1] = target: T1, ROCK2 (Homo sapiens (Human), UniProt O75116); test: ROCK2 ADP-Glo kinase enzyme inhibition assay; format: biochemical; conditions: read-out: ROCK2 IC50, Example 17, compounds I to XII
[2] = tested on: Phospho-MYPT1 Thr853; test: Inhibition of MYPT1 phosphorylation in human trabecular meshwork (hTM) cells, western blot; conditions: 10 μM to 0.04 μM, fifteen hours, tested form: 2HCl
[3] = tested on: hTM cells; test: hTM cell morphology changes (microscopy); format: cell-based, human; conditions: hTM cells, 30, 10, 3.33, or 1.11 μM, 24 hours; tested form: 2HCl
[4] = target: MRCKa (Homo sapiens (Human), UniProt Q5VT25); test: Radioisotope filter binding kinase assay; format: biochemical; conditions: read-out: IC50 estimates, MRCKa, 10 uM ATP, tested form: 2HCl
[5] = target: PKA (Homo sapiens (Human), UniProt P17612); test: Radioisotope filter binding kinase assay; format: biochemical; conditions: read-out: IC50 estimates, PKA, 10 uM ATP, tested form: 2HCl
[6] = target: PKCtheta (Homo sapiens (Human), UniProt Q04759); test: Radioisotope filter binding kinase assay; format: biochemical; conditions: read-out: IC50 estimates, PKCtheta, 10 uM ATP, tested form: 2HCl
[7] = target: ROCK1 (Homo sapiens (Human), UniProt Q13464); test: Radioisotope filter binding kinase assay; format: biochemical; conditions: read-out: IC50 estimates, ROCK1, 10 uM ATP, tested form: 2HCl
[8] = target: T1, ROCK2; test: Radioisotope filter binding kinase assay; format: biochemical; conditions: read-out: IC50 estimates, ROCK2, 10 uM ATP, tested form: 2HCl
[9] = tested on: primary hTM cells; test: RealTime-Glo MT cell viability assay in hTM cells; format: cell-based; conditions: 30 μM, after 48 to 72 hours incubation, tested form: 2HCl
Text: Commercially available RealTime-Glo™ MT cell viability (Promega, catalog #G9712) and CellTox™ Green cytotoxicity (Promega, catalog #G8731) assays were used in assessing effect of compounds on primary hTM cell viability and cytotoxicity. The RealTime-Glo™ MT cell viability assay is a nonlytic, homogeneous, bioluminescent method that determines the number of viable cells in culture by measuring the reducing potential of cells and thus metabolism (MT). Viable cells reduce the proprietary pro-substrate to generate a substrate for NanoLuc® luciferase. This substrate diffuses from cells into the surrounding culture medium, where it is rapidly used by the NanoLuc® Enzyme to produce a luminescent signal. In a contrasting and complementary manner, CellTox™ Green cytotoxicity assay measures changes in membrane integrity that occur as a result of cell death. This assay system uses a proprietary asymmetric cyanine dye that is excluded from viable cells but preferentially stains the dead cells' DNA. […]
Human™ cells were cultured and maintained as described in Example 12. […] Light emitted by luciferase and fluorescence emitted by dye binding to DNA (excitation 485 nm and emission 525 nm) were measured at 24 h, 48 h, and 72 h after incubation using plate based luminescence and fluorescence plate readers.

[10] = tested on: New Zealand White rabbits; test: Normotensive rabbit IOP studies; format: in vivo; conditions: tested form: 2HCl
Text: For these efficacy studies methods were followed as described in (Jacob et al, A promising drug candidate for the treatment of glaucoma based on a P2Y6-receptor agonist, Purinergic Signal. 2018 September; 14 (3): 271-284). In all studies, male New Zealand White rabbits were acclimatized for one week before the study. Animals were given food and water ad libitum. Body weights of rabbits ranged from 2 to 3 kg. Animals were trained for the IOP measurement procedure during the acclimation period in order to reduce stress and obtaining more accurate measurements during the study. IOP measurements were taken using the Icare® TONOVET Plus tonometer. […] The technique of use of the […] tonometer in rabbits was described previously (Gloe et al, Validation of the Icare® TONOVET Plus Rebound Tonometer in Normal Rabbit Eyes, Exp Eye Res. 2019 August; 185:107698). IOP readings are obtained only when the tonometer is held an appropriate distance and in the correct plane relative to the ocular surface. Green light appears when the orientation is correct, thereby minimizing operator errors. Measurements were performed at the same time of day by the same person using the same instrument. Normotensive rabbit studies. […] In experiment 1 of the normotensive study, the effect of compound I.2HCl was measured at two doses of 1 mg/ml (2.34 mM) and 0.5 mg/ml (1.17 mM). Compound I.2HCl prepared in saline was applied to the right eye, as a once daily, 30 μL eye drop application in the morning on days 1, 2 and 3. IOP measurements were taken before test article addition (0 h) and at 1, 2, 4, 6, and 8 hours after addition on days 1 and 3. On day 2, only a 0 h reading was taken. This was done to minimize stress on the animals and to compare day 2-0 h and day 3-0 h readings without handling rabbits between applications. […] Twenty four hours after the instillation, IOP increased but still remained below normal levels. At 1 mg/ml dose, the IOP remained lower than normal levels on day 3; compound application on day 3 further reduced IOP. At 0.5 mg/ml dose, the IOP reached normal levels by day 3 but IOP reduced to same levels as 1 mg/ml dose after compound instillation. […] Similar to Experiment 1 of the normotensive study, compounds were applied once daily in the right eye in the morning on days 1, 2 and 3, whereas the left eye served as a control with application of Refresh Tears™. IOP measurements were taken at 0, 1, 2, 4, 6, and 8 hours on days 1 and 3, and 0 hours on day 2.

[11] = tested on: New Zealand White rabbits; test: Acute eye irritation/corrosion, OECD Guideline 405; conditions: 0.1 ml, 20 mg/ml in saline; tested form: 2HCl

Question: `CC1(c2ccccc2)OB(c2ccc(C(CN)C(=O)Nc3ccc4cnccc4c3)cc2)OC1(C)c1ccccc1` (stereo not drawn) was tested. Which pIC50 ([1]; tested form: 2HCl) did it give?
Answer: The pIC50 was 7.25.

Question: How did the pIC50 ([1]; tested form: 2HCl) turn out when `Cc1ccc(C(CN)C(=O)Nc2ccc3cnccc3c2)cc1B1OC(C)(C)C(C)(C)O1` (stereo not drawn) was run?
Answer: Its pIC50 is 8.10.

Question: With `Cc1ccc(C(CN)C(=O)Nc2ccc3cnccc3c2)cc1B1OC(C)(c2ccccc2)C(C)(c2ccccc2)O1` (stereo not drawn) as the compound, how does the pIC50 ([1]; tested form: 2TFA) read?
Answer: The pIC50 was 7.66.

Question: How did the pIC50 ([1]; tested form: 2HCl) turn out when `CC1(C)OB(c2ccc(C(CN)C(=O)Nc3ccc4cnccc4c3)cc2)OC1(C)C` (racemic) was run?
Answer: Its pIC50 is 7.47.

Question: With `COc1ccc(B(O)O)cc1C(CN)C(=O)Nc1ccc2cnccc2c1` (racemic) as the compound, how does the pIC50 ([1]; tested form: 2HCl) read?
Answer: Its pIC50 is 6.66.

Question: `COc1ccc(B2OC(C)(C)C(C)(C)O2)cc1C(CN)C(=O)Nc1ccc2cnccc2c1` (racemic) was tested. Which pIC50 ([1]; tested form: 2HCl) did it give?
Answer: The pIC50 was 6.20.

Question: How did the pIC50 ([1]; tested form: 2HCl) turn out when `COc1ccc(C(CN)C(=O)Nc2ccc3cnccc3c2)cc1B(O)O` (racemic) was run?
Answer: Its pIC50 is 7.37.

Question: How did the pIC50 ([1]; tested form: 2HCl) turn out when `Cc1cc(C(CN)C(=O)Nc2ccc3cnccc3c2)ccc1B(O)O` (racemic) was run?
Answer: The pIC50 was 7.33.

Question: And the “Inhibition of MYPT1 phosphorylation at lower concentrations, compared to other compounds” value [2]?
Answer: Its value is “less effective at lower concentrations in inhibiting MYPT1 phosphorylation”.

Question: `Cc1ccc(C(CN)C(=O)Nc2ccc3cnccc3c2)cc1B(O)O` (racemic) was tested. Which pIC50 ([1]; tested form: 2HCl) did it give?
Answer: The pIC50 was 8.10.

Question: With `NCC(C(=O)Nc1ccc2cnccc2c1)c1cc(F)cc(B(O)O)c1` (racemic) as the compound, how does the pIC50 ([1]; tested form: 2HCl) read?
Answer: Its pIC50 is 7.57.

Question: How did the pIC50 ([1]; tested form: 2HCl) turn out when `NCC(C(=O)Nc1ccc2cnccc2c1)c1ccc(B(O)O)cc1F` (racemic) was run?
Answer: Its pIC50 is 7.24.

Question: How did the pIC50 ([1]; tested form: 2HCl) turn out when `NCC(C(=O)Nc1ccc2cnccc2c1)c1cccc(B(O)O)c1` (racemic) was run?
Answer: Its pIC50 is 7.74.

Question: What about the cellular morphological changes [3] of the same compound?
Answer: Its cellular morphological changes is “beginning to show cell contraction”.

Question: And the pIC50 [4]?
Answer: Its pIC50 is under 5.00.

Question: What about the pIC50 [5] of the same compound?
Answer: Its pIC50 is 8.22.

Question: And the pIC50 [6]?
Answer: The pIC50 was 6.09.

Question: What about the pIC50 [7] of the same compound?
Answer: Its pIC50 is 8.40.

Question: What about the pIC50 [8] of the same compound?
Answer: The pIC50 was 8.70.

Question: What about the reduction in viability [9] of the same compound?
Answer: The reduction in viability was 35%.

Question: What about the “IOP level on day 3” value ([10]; experiment 1, 0.5 mg/ml dose) of the same compound?
Answer: Its value is “reached normal levels by day 3”.

Question: What about the “Effect on IOP” value ([10]; experiment 1, 1 mg/ml (2.34 mM) and 0.5 mg/ml (1.17 mM) in saline, once daily 30 μL eye drop) of the same compound?
Answer: The value was “significantly reduced IOP with 2 hours after the instillation on day 1”.

Question: What about the “IOP level on day 3” value ([10]; experiment 1, 1 mg/ml dose) of the same compound?
Answer: The value was “remained lower than normal levels on day 3”.

Question: And the IOP reduction ([10]; experiment 1, both doses (1 mg/ml and 0.5 mg/ml))?
Answer: The IOP reduction was 35%.

Question: And the “Effect on IOP” value ([10]; experiment 2, 0.83 mM in 0.5% carboxymethylcellulose (Refresh Tears), once daily)?
Answer: The value was “reduced IOP significantly within 2 hours after application on day 1”.

Question: What about the “IOP effect compared to the other compounds” value ([10]; experiment 2, 0.83 mM) of the same compound?
Answer: The value was “much more pronounced”.

Question: What about the “clinical signs of toxicity, morbidity and mortality” value [11] of the same compound?
Answer: Its value is “No treatment-related adverse effects were noticed”.

pIC50: −log10 of the molar value.
